Binding of CDR-mutated scFvs to a peptide of the spike HR2 region

From the AlphaSeq antibody data of Engelhart et al. 2022 (doi:10.1038/s41597-022-01779-4), copy in the FLAb collection.

Target peptide (SARS-CoV-2 spike, HR2 region): PDVDLGDISGINAS

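The parent was found by panning a naive human phage display library on the peptide. AAYL50 was designed without a model: most single CDR substitutions and a random sample of double and triple ones. The scFvs were displayed on barcoded MATa yeast, the peptide on MATalpha yeast. Mating (16 h, 30 °C) was followed by selection of diploids and sequencing of their barcodes. Read counts were normalised to the haploid input and turned into Kd by a linear fit to BCL2-family pairs of known affinity, for each replicate. Mating was done three times.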

The variants keep the heavy chain, the linker and the frameworks of Ab-14 (scFv order VH, three GGGGS repeats, VL).
VH: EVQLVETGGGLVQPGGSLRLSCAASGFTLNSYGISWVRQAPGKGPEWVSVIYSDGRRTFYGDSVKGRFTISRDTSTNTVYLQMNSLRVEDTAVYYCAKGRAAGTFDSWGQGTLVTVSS
VL: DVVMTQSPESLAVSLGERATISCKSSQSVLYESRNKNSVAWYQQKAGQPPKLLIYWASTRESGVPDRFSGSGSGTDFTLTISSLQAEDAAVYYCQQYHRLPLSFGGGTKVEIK

Sequences are complete VL domains.
Affinities are written as log10 Kd with Kd in nM; a lower number is a better binder.
Where no diploid with the target was found in that replicate, the entry reads "n.d.": below detection, most likely a poor binder, though not proof of it.

VL	replicates, log10 nM
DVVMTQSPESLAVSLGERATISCKSPQSVLYESRFKNSVAWYQQKAGQPPKLLIYWASTRESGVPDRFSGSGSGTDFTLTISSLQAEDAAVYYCQQYHRLPLSFGGGTKVEIK	1.59 / 1.56 / 1.77
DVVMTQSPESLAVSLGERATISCKSSQTVLYESRNKNSVAWYQQKAGQPPKLLIYWASVRESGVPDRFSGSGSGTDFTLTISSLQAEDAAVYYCMQYHRLPLSFGGGTKVEIK	3.06 / 3.30 / n.d.
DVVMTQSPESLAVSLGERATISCKSSQSRLYYSRNKNSVAWYQQKAGQPPKLLIYWASTRESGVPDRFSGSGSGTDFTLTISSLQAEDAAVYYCRQYHRLPLSFGGGTKVEIK	2.78 / n.d. / n.d.
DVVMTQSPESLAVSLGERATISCKPSQHVLYESRNKNSVAWYQQKAGQPPKLLIYWASTRESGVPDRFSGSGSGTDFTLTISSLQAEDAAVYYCQQYHRGPLSFGGGTKVEIK	2.70 / 2.53 / 3.51
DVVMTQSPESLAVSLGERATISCKSKQSVLYESRNKNSVAWYQQKAGQPPKLLIYWCSTRESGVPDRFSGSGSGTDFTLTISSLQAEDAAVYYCQQYHRLPLSFGGGTKVEIK	3.91 / 3.38 / n.d.
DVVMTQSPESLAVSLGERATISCKSSQSVLAESRNGNSVAWYQQKAGQPPKLLIYWASTSESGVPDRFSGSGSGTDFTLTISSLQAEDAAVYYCQQYHRLPLSFGGGTKVEIK	2.63 / 2.31 / 3.02
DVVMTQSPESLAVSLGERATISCKSSQSVLYESRNKNSVAWYQQKAGQPPKLLIYWARYRESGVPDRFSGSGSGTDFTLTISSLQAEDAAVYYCQQYARLPLSFGGGTKVEIK	1.27 / 1.84 / 1.88
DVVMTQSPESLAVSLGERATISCKSMQSVLYESANKNSVAWYQQKAGQPPKLLIYWASTRPSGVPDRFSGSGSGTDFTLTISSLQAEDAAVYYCQQYHRLPLSFGGGTKVEIK	1.22 / 1.60 / 1.56
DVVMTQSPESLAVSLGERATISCKSSQYVLYVSRNKNSVAWYQQKAGQPPKLLIYWASTRESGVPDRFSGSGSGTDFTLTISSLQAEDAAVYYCQQYNRLPLSFGGGTKVEIK	n.d. / n.d. / n.d.
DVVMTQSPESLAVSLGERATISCKSSQSHLYESENKNSVAWYQQKAGQPPKLLIYWASTHESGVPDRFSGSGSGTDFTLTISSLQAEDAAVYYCQQYHRLPLSFGGGTKVEIK	n.d. / n.d. / n.d.
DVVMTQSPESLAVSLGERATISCKVSQEVLGESRNKNSVAWYQQKAGQPPKLLIYWASTRESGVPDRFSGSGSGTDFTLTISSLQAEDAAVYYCQQYHRLPLSFGGGTKVEIK	-0.31 / 0.04 / -0.12
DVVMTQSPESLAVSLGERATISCKSSQSVLQESRNKNSVAWYQQKAGQPPKLLIYWASTGESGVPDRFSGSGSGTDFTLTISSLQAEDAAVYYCQQPHRLPLSFGGGTKVEIK	n.d. / n.d. / n.d.
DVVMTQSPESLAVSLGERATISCKSSGSVLYESRNKNSVAWYQQKAGQPPKLLIYWASTRYSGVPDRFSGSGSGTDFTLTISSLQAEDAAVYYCVQYHRLPLSFGGGTKVEIK	n.d. / n.d. / n.d.
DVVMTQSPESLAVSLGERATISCKSSQSVLYESRNKNSVKWYQQKAGQPPKLLIYWASTRESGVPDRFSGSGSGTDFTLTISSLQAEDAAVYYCQQYHRLPGSFGGGTKVEIK	n.d. / n.d. / n.d.
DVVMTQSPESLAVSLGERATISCKSSQSTWYESRNKNSVAWYQQKAGQPPKLLIYWASTRESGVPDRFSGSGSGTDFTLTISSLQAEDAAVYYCQQYFRLPLSFGGGTKVEIK	0.01 / 0.42 / 0.14
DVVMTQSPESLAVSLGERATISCKSSQSVLSESRNKNSVYWYQQKAGQPPKLLIYWASTRESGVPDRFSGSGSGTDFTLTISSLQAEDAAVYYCHQYHRLPLSFGGGTKVEIK	n.d. / n.d. / n.d.
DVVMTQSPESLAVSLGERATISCKSSQSVLYESRNKNSYAWYQQKAGQPPKLLIYWASTRTSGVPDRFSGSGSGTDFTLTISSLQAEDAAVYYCQGYHRLPLSFGGGTKVEIK	n.d. / n.d. / n.d.
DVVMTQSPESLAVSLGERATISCKSSQSVLYESLNKNSVAWYQQKAGQPPKLLIYKASTRESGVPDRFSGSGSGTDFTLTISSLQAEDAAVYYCQRYHRLPLSFGGGTKVEIK	1.30 / 1.47 / 1.30
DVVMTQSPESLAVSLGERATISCKSSQSVLYESRNKGSGAWYQQKAGQPPKLLIYWASTRESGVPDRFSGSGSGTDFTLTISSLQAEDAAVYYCIQYHRLPLSFGGGTKVEIK	n.d. / n.d. / 5.64
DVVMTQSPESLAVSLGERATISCKSSQSVLYESRNGNSVAWYQQKAGQPPKLLIYWASKRESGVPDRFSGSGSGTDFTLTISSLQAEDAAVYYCQQYDRLPLSFGGGTKVEIK	0.90 / 1.05 / 0.99

From the list, the first 2 with no signal in any replicate:

VL	replicates, log10 nM
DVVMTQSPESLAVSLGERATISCKSSQYVLYVSRNKNSVAWYQQKAGQPPKLLIYWASTRESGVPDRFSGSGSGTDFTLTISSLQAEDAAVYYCQQYNRLPLSFGGGTKVEIK	n.d. / n.d. / n.d.
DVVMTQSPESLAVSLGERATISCKSSQSHLYESENKNSVAWYQQKAGQPPKLLIYWASTHESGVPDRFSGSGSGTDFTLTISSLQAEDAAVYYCQQYHRLPLSFGGGTKVEIK	n.d. / n.d. / n.d.

In this assay the parent's reference entry averaged 0.65; its copy inside this library read 1.68.
As a blank, each scFv also met three strains without target: over library AAYL50, 18% of these pairings were detected, typically at 4.19 and seldom below 2.99.